Reference: patent publication US20230233555A1 (AbbVie Inc., priority 2022, published 2023)

System: CYP1A2, CYP3A, CYP2D6, CYP2C9, CYP2C19, CYP2B6
Assay: Drug interaction studies: effect of upadacitinib on co-administered drugs / in vivo markers of CYP activity (cocktail study)
Details: extended-release

## CC(=O)C[C@@H](c1ccccc1)c1c(O)c2ccccc2oc1=O [S-Warfarin]
Upadacitinib 30 mg QD
  AUC Ratio (90% CI) of co-administered drug, with upadacitinib vs alone: 1.11 (1.07-1.15)
  Cmax Ratio (90% CI) of co-administered drug, with upadacitinib vs alone: 1.07 (1.02-1.11)
Upadacitinib 45 mg QD
  AUC Ratio (90% CI) of co-administered drug, with upadacitinib vs alone: 1.12 (1.05-1.20)
  Cmax Ratio (90% CI) of co-administered drug, with upadacitinib vs alone: 1.18 (1.05-1.33)
